{"sequences": {"note": "The chains behind the UniProt entries cited, without tags or fusion partners.", "UniProt P38398, whole entry, looked up": "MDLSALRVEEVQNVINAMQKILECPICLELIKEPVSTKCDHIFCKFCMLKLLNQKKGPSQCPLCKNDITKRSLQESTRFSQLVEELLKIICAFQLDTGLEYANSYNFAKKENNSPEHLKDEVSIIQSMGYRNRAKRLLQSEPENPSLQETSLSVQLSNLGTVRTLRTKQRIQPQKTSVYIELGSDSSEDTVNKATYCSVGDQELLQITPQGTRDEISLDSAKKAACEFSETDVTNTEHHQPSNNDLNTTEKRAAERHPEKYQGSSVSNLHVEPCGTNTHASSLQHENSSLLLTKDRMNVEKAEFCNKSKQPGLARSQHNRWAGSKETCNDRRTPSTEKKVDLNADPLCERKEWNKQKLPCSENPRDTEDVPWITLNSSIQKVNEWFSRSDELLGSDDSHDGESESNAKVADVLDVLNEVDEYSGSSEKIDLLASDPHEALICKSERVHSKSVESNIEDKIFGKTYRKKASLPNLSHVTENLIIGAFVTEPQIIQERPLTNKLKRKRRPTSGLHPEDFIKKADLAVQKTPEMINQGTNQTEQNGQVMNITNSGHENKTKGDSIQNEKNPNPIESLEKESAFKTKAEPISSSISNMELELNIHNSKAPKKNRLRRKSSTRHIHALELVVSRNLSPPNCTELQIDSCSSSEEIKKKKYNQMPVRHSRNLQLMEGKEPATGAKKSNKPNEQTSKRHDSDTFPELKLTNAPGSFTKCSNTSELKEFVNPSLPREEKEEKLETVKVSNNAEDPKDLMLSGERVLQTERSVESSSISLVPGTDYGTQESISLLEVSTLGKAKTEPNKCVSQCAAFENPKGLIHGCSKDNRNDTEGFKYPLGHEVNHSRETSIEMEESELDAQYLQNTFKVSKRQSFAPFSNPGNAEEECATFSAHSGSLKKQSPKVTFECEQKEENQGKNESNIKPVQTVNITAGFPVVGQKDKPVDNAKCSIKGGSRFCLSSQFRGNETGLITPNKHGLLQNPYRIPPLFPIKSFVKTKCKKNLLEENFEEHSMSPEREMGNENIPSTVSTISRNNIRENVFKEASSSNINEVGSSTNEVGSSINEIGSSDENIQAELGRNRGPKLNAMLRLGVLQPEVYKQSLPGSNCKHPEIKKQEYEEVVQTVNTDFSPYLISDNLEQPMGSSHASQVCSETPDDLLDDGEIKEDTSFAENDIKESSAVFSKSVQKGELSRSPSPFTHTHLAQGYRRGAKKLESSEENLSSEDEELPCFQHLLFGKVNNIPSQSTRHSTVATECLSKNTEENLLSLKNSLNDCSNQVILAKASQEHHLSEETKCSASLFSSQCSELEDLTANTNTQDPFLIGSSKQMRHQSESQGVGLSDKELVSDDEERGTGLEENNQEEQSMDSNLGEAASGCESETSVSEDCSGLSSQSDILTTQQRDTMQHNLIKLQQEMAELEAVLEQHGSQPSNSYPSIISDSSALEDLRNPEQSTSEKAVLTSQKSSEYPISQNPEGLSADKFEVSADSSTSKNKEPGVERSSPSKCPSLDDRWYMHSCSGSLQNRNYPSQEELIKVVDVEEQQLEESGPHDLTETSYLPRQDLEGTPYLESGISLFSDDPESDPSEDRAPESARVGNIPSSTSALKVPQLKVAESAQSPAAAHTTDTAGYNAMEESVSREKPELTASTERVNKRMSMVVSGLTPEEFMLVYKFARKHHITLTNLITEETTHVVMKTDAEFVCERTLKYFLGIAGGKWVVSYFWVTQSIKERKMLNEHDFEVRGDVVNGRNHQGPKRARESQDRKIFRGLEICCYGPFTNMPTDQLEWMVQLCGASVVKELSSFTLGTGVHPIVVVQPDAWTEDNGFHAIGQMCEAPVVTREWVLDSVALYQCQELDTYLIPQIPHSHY"}, "source": "PubChem BioAssay AID892", "about": "(National Center for Advancing Translational Sciences (NCATS), 2007)", "biological_target": "Breast cancer type 1 susceptibility protein (Homo sapiens) (UniProt P38398)", "experiment": "qHTS Assay for Inhibitors of BRCT-Phosphoprotein Interaction (Red Fluorophore)", "details": "BRCT-phosphopeptide binding, red fluorescence polarization", "experimental": "NIH Molecular Libraries Screening Centers Network [MLSCN]\nNIH Chemical Genomics Center [NCGC]\nPI Name: Natarajan, Amarnath; University of Texas\nA complex of BRCT (C-terminal portion of BRCA1, MW ~35 kDa, His-tagged) and fluorescently labeled pBACH1 phosphorylated 10 aa peptide fragment of BACH1, a helicase implicated in DNA repair, is incubated with library members. Inhibitors of BRCT-pBACH1 binding are detected by a decrease in the fluorescence polarization (FP) of the fluorophore. In order to minimize the effect of fluorescence artifacts and to increase the overall robustness of the screen, the compound library members were incubated in separate reactions with rhodamine-labeled probe-protein complexes. Protein and labeled probes were supplied by Dr. Amarnath Natarajan, Department of Pharmacology and Toxicology, University of Texas Medical Branch Galveston, TX.\nAssay Buffer: 16mM Na2HPO4, 4 mM NaH2PO4, 150 mM NaCl, 1 mM EDTA, 1 mM DTT, 0.02% NaN3, and 0.01% Tween 20 at pH 7.3.\nAssay Controls: 100 nM TAMRA labeled decapeptide dispensed into columns 3 and 4 to generate negative control (full inhibition of\nbinding, -100 % activity). 100 nM labeled decapeptide/100 nM protein in columns 1, 2, 5 - 48. Titration of unlabeled decapeptide control (from 10 mM, then 1:2 dilution in duplicate) pin-transferred to column 2, rows 1 to 16. Column 1 is neutral.\nThree uL of reagents were dispensed to 1536-well Greiner black solid-bottom plates. Compounds and controls (23 nL) were transferred via Kalypsys PinTool. The plates were incubated for 12 min at room temperature, and then read on ViewLux (Perkin-Elmer) High-throughput CCD imager using BODIPY for the rhodamine-labeled decapeptide probe polarization filter sets. During dispense, reagent bottles were kept submerged into 4 deg C water bath and all liquid lines were covered with aluminum foil to minimize probe and protein degradation. All screening operations were performed on a Kalypsys robotic system (Kalypsys, Inc., San Diego, CA) containing one RX-130 and two RX-90 anthropomorphic robotic arms. The timing and order of assay plates passing through the screening system were adjusted such that each compound library plate was assayed against the fluorescein- and rhodamine-labeled assay systems at immediately adjacent time points.", "key": {"[1]": {"details": "at 76.9 µM (top of the series) unless noted"}}, "note": "Several values for one entry are separate records, joined by “and”; a condition that tells them apart may be missing. Equal entries are not always repeated. The list shows a part of the results, in another mix than the full data. Activity calls are given as the source filed them. Calls come from the whole dose curve; as a rule, active = well fitted inhibition curve with a large enough effect; inconclusive = small, poorly fitted or top-dose-only effect; inactive = no such curve, though single readings can be large or run the other way. % is set by controls: 0 for no effect and ±100 for the full control effect.", "data": [{"smiles": "COC(=O)c1cc2c(s1)N=C(c1ccccc1)N(C)P2(=O)N1CCOCC1", "note": "(configuration not stated)", "values": [{"measurement": "activity change, negative = inhibition", "setting": "[1]", "result": "inactive: 0.571%"}]}, {"smiles": "O=P1(Nc2nc3ccc(Cl)cc3s2)COc2ccccc2O1", "note": "(configuration not stated)", "values": [{"measurement": "activity change, negative = inhibition", "setting": "[1]", "result": "inactive: -0.0878%"}]}, {"smiles": "CN1CCC[C@H](OC(=O)C(c2ccccc2)c2ccccc2)C1", "values": [{"measurement": "activity change, negative = inhibition", "setting": "[1]", "result": "inactive: -0.228% [at 15.4 µM]"}]}, {"smiles": "C[C@@H](O)COc1ccc([As](=O)(O)O)cc1N", "values": [{"measurement": "activity change, negative = inhibition", "setting": "[1]", "result": "inactive: -0.0974% [at 15.4 µM]"}]}, {"smiles": "O=P(Nc1nccs1)(c1ccccc1)c1ccccc1", "values": [{"measurement": "activity change, negative = inhibition", "setting": "[1]", "result": "inactive: -0.079%"}]}, {"smiles": "c1nnnn1CCn1cnnn1", "values": [{"measurement": "activity change, negative = inhibition", "setting": "[1]", "result": "inactive: 0.243%"}]}, {"smiles": "O=C(OC1CN2CCC1CC2)c1cccc(Cl)c1", "note": "(configuration not stated)", "values": [{"measurement": "activity change, negative = inhibition", "setting": "[1]", "result": "inactive: 0.859%"}]}, {"smiles": "[N-]=[N+]=Nc1ccc([As](=O)(O)O)cc1", "values": [{"measurement": "activity change, negative = inhibition", "setting": "[1]", "result": "inactive: 0.0391% [at 15.4 µM]"}]}, {"smiles": "Cc1cc([N+](=O)[O-])cc([N+](=O)[O-])c1O", "values": [{"measurement": "activity change, negative = inhibition", "setting": "[1]", "result": "inactive: -1.5%"}]}, {"smiles": "CN(C(=O)Cc1ccccc1)[C@@H]1CC[C@@]2(CCCO2)C[C@H]1N1CCCC1", "values": [{"measurement": "activity change, negative = inhibition", "setting": "[1]", "result": "inactive: -1.5%"}]}, {"smiles": "O=C(CO)Nc1ccc([As](=O)(O)O)cc1", "values": [{"measurement": "activity change, negative = inhibition", "setting": "[1]", "result": "inactive: -0.493% [at 15.4 µM]"}]}, {"smiles": "CCc1nc2c(n1)c1c(non1O)c1c2no[n+]1[O-]", "values": [{"measurement": "activity change, negative = inhibition", "setting": "[1]", "result": "inactive: 1.73%"}]}, {"smiles": "Cc1c2non([O-])c-2c(C)[n+](=O)[n+]1[O-]", "values": [{"measurement": "activity change, negative = inhibition", "setting": "[1]", "result": "inactive: 1.76%"}]}, {"smiles": "NCC[C@@H](N)CSP(=O)(O)O", "values": [{"measurement": "activity change, negative = inhibition", "setting": "[1]", "result": "inactive: 1.97% [at 15.4 µM]"}]}, {"smiles": "O=[N+]([O-])c1ccc(C[As](=O)(O)O)cc1", "values": [{"measurement": "activity change, negative = inhibition", "setting": "[1]", "result": "inactive: 0.24% [at 15.4 µM]"}]}, {"smiles": "[N-]=[N+]=NCC(O)CN=[N+]=[N-]", "note": "(configuration not stated)", "values": [{"measurement": "activity change, negative = inhibition", "setting": "[1]", "result": "inactive: -0.461% [at 15.4 µM]"}]}, {"smiles": "C(Cc1nn[nH]n1)c1nn[nH]n1", "values": [{"measurement": "activity change, negative = inhibition", "setting": "[1]", "result": "inactive: 0.283% [at 15.4 µM]"}]}, {"smiles": "CN(C(=O)Cc1ccc(Cl)c(Cl)c1)[C@H]1CCCC[C@@H]1N1CCCC1", "values": [{"measurement": "activity change, negative = inhibition", "setting": "[1]", "result": "inactive: 0.608% and inactive: 1.16% and inactive: -0.902%"}]}, {"smiles": "[N-]=[N+]=NCC(N)=O", "values": [{"measurement": "activity change, negative = inhibition", "setting": "[1]", "result": "inactive: -0.447% [at 15.4 µM]"}]}, {"smiles": "O=[As]c1ccc(S(=O)(=O)NCCO)cc1", "note": "(configuration not stated)", "values": [{"measurement": "activity change, negative = inhibition", "setting": "[1]", "result": "inactive: 0.893% [at 15.4 µM]"}]}, {"smiles": "O=C(OC1CN2CCC1CC2)C12CC3CC(CC(C3)C1)C2", "note": "(configuration not stated)", "values": [{"measurement": "activity change, negative = inhibition", "setting": "[1]", "result": "inactive: -0.532%"}]}, {"smiles": "NC(=O)Nc1cc([As](=O)(O)O)cc(I)c1O", "values": [{"measurement": "activity change, negative = inhibition", "setting": "[1]", "result": "inactive: 0.239% [at 15.4 µM]"}]}, {"smiles": "COP1(=S)c2c(C)nn(CCC#N)c2N=C(c2ccc(F)cc2)N1C", "note": "(configuration not stated)", "values": [{"measurement": "activity change, negative = inhibition", "setting": "[1]", "result": "inactive: -0.322%"}]}, {"smiles": "O=C(O)[C@@H](O)c1ccc([As](=O)(O)O)cc1", "values": [{"measurement": "activity change, negative = inhibition", "setting": "[1]", "result": "inactive: 0.488% [at 15.4 µM]"}]}, {"smiles": "O=C(COc1ccccc1)OC1CN2CCC1CC2", "note": "(configuration not stated)", "values": [{"measurement": "activity change, negative = inhibition", "setting": "[1]", "result": "inactive: 0.492%"}]}, {"smiles": "CN(N=O)C(=N)N[N+](=O)[O-]", "values": [{"measurement": "activity change, negative = inhibition", "setting": "[1]", "result": "inactive: -0.179%"}]}, {"smiles": "O=P1(Nc2ncccn2)COc2ccccc2OC1", "values": [{"measurement": "activity change, negative = inhibition", "setting": "[1]", "result": "inactive: 0.762%"}]}, {"smiles": "O=P1(Nc2ccc(Br)cn2)COc2ccccc2OC1", "values": [{"measurement": "activity change, negative = inhibition", "setting": "[1]", "result": "inactive: -1.15%"}]}, {"smiles": "Cc1nn(-c2ccccc2)c2c1P(=O)(N1CCOCC1)N(C)C(c1ccccc1)=N2", "note": "(configuration not stated)", "values": [{"measurement": "activity change, negative = inhibition", "setting": "[1]", "result": "inactive: -0.977%"}]}, {"smiles": "CN(C(=O)Cc1ccc(Cl)c(Cl)c1)[C@@H]1CCCC[C@H]1N1CCCC1", "values": [{"measurement": "activity change, negative = inhibition", "setting": "[1]", "result": "inactive: 1.53% [middle of 4 runs]"}]}, {"smiles": "CN(CCCl)Cc1cc(Cl)c(NC2=NCCN2)c(Cl)c1", "values": [{"measurement": "activity change, negative = inhibition", "setting": "[1]", "result": "inactive: -3.08%"}]}, {"smiles": "O=P1(Nc2ccccn2)COc2ccccc2OC1", "values": [{"measurement": "activity change, negative = inhibition", "setting": "[1]", "result": "inactive: 1.21%"}]}, {"smiles": "Clc1n[nH]nc1-c1nn[nH][15n]1", "values": [{"measurement": "activity change, negative = inhibition", "setting": "[1]", "result": "inactive: -1.17%"}]}, {"smiles": "O=C(CC(=O)c1ccccc1)O[C@H]1CN2CCC1CC2", "values": [{"measurement": "activity change, negative = inhibition", "setting": "[1]", "result": "inactive: -2.37% [at 15.4 µM]"}]}, {"smiles": "NS(=O)(=O)Cc1ccc([As](=O)(O)O)cc1", "values": [{"measurement": "activity change, negative = inhibition", "setting": "[1]", "result": "inactive: -0.933% [at 15.4 µM]"}]}, {"smiles": "CN(C(=O)Cc1ccc(Cl)c(Cl)c1)[C@@H]1CC[C@@]2(CCCO2)C[C@H]1N1CCCC1", "values": [{"measurement": "activity change, negative = inhibition", "setting": "[1]", "result": "inactive: 2.35%"}]}, {"smiles": "NC(=O)Nc1ccc([As](=O)(O)O)cc1", "values": [{"measurement": "activity change, negative = inhibition", "setting": "at 34.4 µM (top of the series)", "result": "inactive: -0.182%"}, {"measurement": "activity change, negative = inhibition", "setting": "at 76.9 µM (top of the series)", "result": "inactive: 1.13%"}]}, {"smiles": "CCOP1(=S)c2c(C)nn(CCC#N)c2N=C(c2ccc(F)cc2)N1C", "note": "(configuration not stated)", "values": [{"measurement": "activity change, negative = inhibition", "setting": "[1]", "result": "inactive: -0.97%"}]}, {"smiles": "CCOP1(=S)c2c(C)nn(CCC#N)c2N=C(c2ccccc2F)N1C", "note": "(configuration not stated)", "values": [{"measurement": "activity change, negative = inhibition", "setting": "[1]", "result": "inactive: -2.1%"}]}, {"smiles": "O=P(Nc1nccs1)(c1ccccc1)c1nc2ccccc2s1", "note": "(configuration not stated)", "values": [{"measurement": "activity change, negative = inhibition", "setting": "[1]", "result": "inactive: -1.28%"}]}, {"smiles": "O=[As](O)(O)c1ccc([As](=O)(O)O)cc1", "values": [{"measurement": "activity change, negative = inhibition", "setting": "[1]", "result": "inactive: -0.382% [at 15.4 µM]"}]}]}
